Values quoted from earlier work, collected in paper PMC13626057, “Sensitizing tumor response to topoisomerase I antibody-drug conjugate by selective CDK7 inhibition” (Science Advances, 2026).

Test system: HER2-positive metastatic breast cancer
Details: patients previously treated with multiple lines of HER2-targeted therapies; cited from earlier work

Trastuzumab deruxtecan [T-DXd]
median progression-free survival (PFS): 16.4 months
objective response rate (ORR): 60.9%
